# Assay results from paper PMC6423038, “Deferiprone: Pan-selective Histone Lysine Demethylase Inhibition Activity and Structure Activity Relationship Study” (Scientific Reports, 2019).
# Legend:
# [1] = system: H3K4me3 and H3K27me3 levels in MCF-7 cells; conditions: Western blot, 72 h
# KDM1A (LSD1) = KDM1A (LSD1) (Homo sapiens, UniProt O60341); assay: KDM cell-free assay (AlphaScreen, BPS Bioscience); conditions: at 0.5 and 10 μM
structure (smiles),measurement,setting,value
"Cc1c(O)c(=O)ccn1C [DFP, Deferiprone]",H3K4me3 and H3K27me3 levels,[1],dose-dependent upregulation
same,effect on the activity of KDM1A,KDM1A (LSD1),no effect
